Results taken from US20210260033A1, “COMBINED THERAPY WITH ICOS BINDING PROTEINS AND […] INHIBITORS” (GLAXOSMITHKLINE INTELLECTUAL PROPERTY DEVELOPMENT LIMITED, priority 2018, published 2021).

Amino acid sequences for entries named in this document (tags omitted). A change or cut given only in a name is not applied to a line headed by its entry.
UniProt O60678: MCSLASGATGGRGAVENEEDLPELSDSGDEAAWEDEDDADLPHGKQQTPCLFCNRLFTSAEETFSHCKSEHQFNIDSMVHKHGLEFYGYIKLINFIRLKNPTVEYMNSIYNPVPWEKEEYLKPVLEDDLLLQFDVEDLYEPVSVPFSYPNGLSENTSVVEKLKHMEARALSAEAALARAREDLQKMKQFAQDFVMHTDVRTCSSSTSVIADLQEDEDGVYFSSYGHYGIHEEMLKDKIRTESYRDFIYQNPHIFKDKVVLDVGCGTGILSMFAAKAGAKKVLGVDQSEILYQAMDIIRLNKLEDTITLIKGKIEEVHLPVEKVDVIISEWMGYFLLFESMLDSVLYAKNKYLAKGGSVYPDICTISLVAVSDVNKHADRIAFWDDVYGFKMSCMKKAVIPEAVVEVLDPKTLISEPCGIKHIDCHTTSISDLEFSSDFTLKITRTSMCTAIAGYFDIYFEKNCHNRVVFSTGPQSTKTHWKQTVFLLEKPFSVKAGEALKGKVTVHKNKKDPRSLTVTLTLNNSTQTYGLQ
UniProt Q86X55: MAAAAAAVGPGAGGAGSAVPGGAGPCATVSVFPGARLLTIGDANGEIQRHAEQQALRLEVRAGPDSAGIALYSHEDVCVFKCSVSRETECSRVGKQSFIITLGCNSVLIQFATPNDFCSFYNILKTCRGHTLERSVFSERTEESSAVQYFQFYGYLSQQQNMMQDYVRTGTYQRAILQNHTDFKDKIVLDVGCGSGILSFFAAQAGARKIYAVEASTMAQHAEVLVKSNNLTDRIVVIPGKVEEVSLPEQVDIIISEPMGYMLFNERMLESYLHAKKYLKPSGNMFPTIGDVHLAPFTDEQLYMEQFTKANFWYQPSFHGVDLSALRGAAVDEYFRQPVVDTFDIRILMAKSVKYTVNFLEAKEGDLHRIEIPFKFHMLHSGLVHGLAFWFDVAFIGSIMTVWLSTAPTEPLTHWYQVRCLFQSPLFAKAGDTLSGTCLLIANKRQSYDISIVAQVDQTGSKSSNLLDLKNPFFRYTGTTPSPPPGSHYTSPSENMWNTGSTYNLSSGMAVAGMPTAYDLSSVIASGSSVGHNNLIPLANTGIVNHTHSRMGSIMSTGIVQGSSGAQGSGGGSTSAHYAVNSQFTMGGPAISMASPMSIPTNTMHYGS
UniProt Q96LA8, whole entry: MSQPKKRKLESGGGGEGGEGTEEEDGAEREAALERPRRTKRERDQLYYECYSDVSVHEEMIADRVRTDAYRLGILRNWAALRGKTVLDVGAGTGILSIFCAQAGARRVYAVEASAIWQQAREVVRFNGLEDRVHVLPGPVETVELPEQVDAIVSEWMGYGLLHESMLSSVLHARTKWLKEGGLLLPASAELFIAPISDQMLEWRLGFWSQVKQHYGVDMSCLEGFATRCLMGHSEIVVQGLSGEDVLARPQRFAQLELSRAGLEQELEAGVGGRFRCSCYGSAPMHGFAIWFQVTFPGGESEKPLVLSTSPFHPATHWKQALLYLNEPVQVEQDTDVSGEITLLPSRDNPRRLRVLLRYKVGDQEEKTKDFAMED
UniProt Q9NR22, whole entry: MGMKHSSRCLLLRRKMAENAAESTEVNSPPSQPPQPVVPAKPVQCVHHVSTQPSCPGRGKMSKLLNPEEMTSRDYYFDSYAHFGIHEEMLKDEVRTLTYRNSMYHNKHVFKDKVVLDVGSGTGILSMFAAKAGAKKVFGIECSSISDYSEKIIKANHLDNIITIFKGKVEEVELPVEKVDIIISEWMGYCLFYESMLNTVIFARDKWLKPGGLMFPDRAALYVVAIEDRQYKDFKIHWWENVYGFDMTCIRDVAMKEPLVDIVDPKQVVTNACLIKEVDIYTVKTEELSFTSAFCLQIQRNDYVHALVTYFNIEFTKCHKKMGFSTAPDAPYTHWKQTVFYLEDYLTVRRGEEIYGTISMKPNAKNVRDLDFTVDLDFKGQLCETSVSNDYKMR

Columns and labels:
Conditions in all cases: 60 minute SAM:Enzyme:Compound A preincubation
PRMT3 = PRMT3 (Homo sapiens, UniProt O60678)
PRMT4 = PRMT4 (Homo sapiens, UniProt Q86X55)
PRMT6 = PRMT6 (Homo sapiens, UniProt Q96LA8)
PRMT8 = PRMT8 (Homo sapiens, UniProt Q9NR22)

Measured: inhibition of activity

CCOCC1(COCC)CCC(c2n[nH]cc2CN(C)CCNC)CC1 [Compound A]
inhibited: all assays above
